The values below are quoted from earlier work in patent publication US20240189234A1, “SILICON PARTICLES FOR DRUG DELIVERY” (NACAMED AS, priority 2021, published 2024).

By log P is commonly meant a log measure of how a compound divides between an organic and an aqueous phase.

Each structure is given as a SMILES string. Some compounds may have been tested in ways that are not shown here.

For the data set the following is noted: calculated log P values from Foye's Principles of Medicinal Chemistry.

As to `CCC(=O)N(c1ccccc1)C1CCN(CCc2ccccc2)CC1`, the log P is 3.68. As to `CCC(=O)N(c1ccccc1)C1(COC)CCN(CCc2cccs2)CC1`, the log partition coefficient (log P) was 3.95.
